This is an account of results in publication PMC9816242, “Human metabolism and excretion kinetics of benzotriazole UV stabilizer UV-327 after single oral administration” (Archives of Toxicology, 2022).

Series [1] in a line: UV-327 and metabolites in plasma of one volunteer after single oral administration of UV-327. The settings on record: single oral 0.3 mg/kg UV-327, n = 1.
A short description of series [2]: UV-327 and metabolites in whole blood of volunteers after single oral administration of UV-327. The settings on record: for tmax (time point of maximum blood level): single oral 0.3 mg/kg UV-327, n = 3; for t1/2 phase 1 (elimination half-life) / t1/2 phase 2 (elimination half-life): single oral 0.3 mg/kg UV-327, n = 3, mean ± SD; for t1/2 phase 2 (elimination half-life): terminal phase.

As to “2-(5-chloro-benzotriazol-2-yl)-4-(1-hydroxy-2-methylpropyl)-6-(tert-butyl)phenol [UV-327-4-mOH]”, in series [1], the maximum plasma level came out at 0.55 µg/L and the “time of maximum plasma level” value was found to be 6 h. Also, in series [2], the “tmax (time point of maximum blood level)” value is reported as 6 h, the “t1/2 phase 1 (elimination half-life)” value worked out at 10.8 ± 0.3 h and the “t1/2 phase 2 (elimination half-life)” value came out at 33.0 ± 0.2 h.

Take “2-(5-chloro-benzotriazol-2-yl)-6-(1-hydroxy-2-methylpropyl)-4-(tert-butyl)phenol [UV-327-6-mOH]”: in series [1], the maximum plasma level was 0.58 µg/L and the “time of maximum plasma level” value is 6 h. In addition, in series [2], the “tmax (time point of maximum blood level)” value came to 6 h, the “t1/2 phase 1 (elimination half-life)” value worked out at 9.9 ± 1.0 h and the “t1/2 phase 2 (elimination half-life)” value was found to be 29.0 ± 1.1 h.

With `CC(C)(C)c1cc(-n2nc3ccc(Cl)cc3n2)c(O)c(C(C)(C)C)c1` [UV-327, 2-(5-chloro-benzotriazol-2-yl)-4,6-di-(tert-butyl)phenol], the maximum plasma level in series [1] turned out to be 1261 µg/L. In addition, in series [2], the “t1/2 phase 1 (elimination half-life)” value is reported as 6.6 ± 0.3 h and the “t1/2 phase 2 (elimination half-life)” value was determined as 24.9 ± 1.9 h.
